Target: T1, Zinc finger protein GLI1 (Homo sapiens, UniProt P08151)
T1 sequence (P08151 whole entry): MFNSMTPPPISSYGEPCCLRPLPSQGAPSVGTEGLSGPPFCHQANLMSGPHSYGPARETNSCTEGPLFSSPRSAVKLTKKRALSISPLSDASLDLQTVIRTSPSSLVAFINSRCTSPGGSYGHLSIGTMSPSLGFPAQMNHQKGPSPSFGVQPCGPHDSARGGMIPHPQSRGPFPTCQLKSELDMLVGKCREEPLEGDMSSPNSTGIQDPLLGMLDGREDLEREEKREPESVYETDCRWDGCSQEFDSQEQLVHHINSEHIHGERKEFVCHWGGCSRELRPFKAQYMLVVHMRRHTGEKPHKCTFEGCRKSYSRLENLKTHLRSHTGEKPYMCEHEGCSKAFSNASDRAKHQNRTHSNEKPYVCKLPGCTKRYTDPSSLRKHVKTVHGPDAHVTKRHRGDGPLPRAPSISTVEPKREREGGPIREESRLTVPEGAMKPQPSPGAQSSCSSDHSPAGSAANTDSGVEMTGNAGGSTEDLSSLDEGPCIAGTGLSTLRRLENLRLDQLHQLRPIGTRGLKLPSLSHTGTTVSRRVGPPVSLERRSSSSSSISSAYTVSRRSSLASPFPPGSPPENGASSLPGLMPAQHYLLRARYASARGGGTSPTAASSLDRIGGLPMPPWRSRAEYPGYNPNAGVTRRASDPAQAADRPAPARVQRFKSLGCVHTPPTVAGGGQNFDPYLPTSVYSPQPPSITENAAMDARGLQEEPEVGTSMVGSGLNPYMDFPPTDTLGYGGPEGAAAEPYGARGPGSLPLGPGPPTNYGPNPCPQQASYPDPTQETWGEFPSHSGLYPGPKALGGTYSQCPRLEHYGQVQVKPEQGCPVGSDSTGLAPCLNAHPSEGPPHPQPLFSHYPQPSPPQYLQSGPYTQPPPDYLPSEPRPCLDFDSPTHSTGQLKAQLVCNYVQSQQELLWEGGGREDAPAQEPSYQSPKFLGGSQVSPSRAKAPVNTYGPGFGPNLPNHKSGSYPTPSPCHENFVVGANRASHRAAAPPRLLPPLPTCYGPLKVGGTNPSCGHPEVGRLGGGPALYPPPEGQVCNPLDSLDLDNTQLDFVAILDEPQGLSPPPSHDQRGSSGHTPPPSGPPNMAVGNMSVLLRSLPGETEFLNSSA
Assay: Inhibition of human Gli1 expressed in mouse C3H10T1/2 cells assessed as inhibition of transcriptional activity after 24 hrs by luciferase reporter gene assay
Summary of the method: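 C3H10T1/2 cells transiently transfected overnight with GliLuc-BS, pRL-TK Renilla control and human Gli1 (or mouse Gli2 for Gli2 lines), 250 ng/mL each for the Gli plasmids. Cells replated in 96-well plates, then exposed to compound in BME/10% FBS for 24 h at 37 °C. Firefly/Renilla dual-luciferase ratio normalized to DMSO, triplicates. Dose–response IC50 from curve fitting.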

## CCCN(C(=O)C(C)c1cccc(C(=O)c2ccccc2)c1)c1ccc2cc[nH]c2c1 (stereo unspecified) [2-(3-Benzoylphenyl)-N-(1H-indol-6-yl)-N-propylpropanamide]
  IC50: 2600 nM
